Where two headings read alike, the source gives them in different places.
Test system: MDA-435-Lung2 cells (MDA-MB-435 human breast cancer)
Assay type: in vivo, nude mice

## Poly-Glutamic Acid-Paclitaxel [PG-TXL]
60 mg/kg single i.v.
  Lung metastases (mice with lung metastases/mice with tumors): 5/8 (62.5%)
  Mean tumor wt at autopsy: 1.23 ± 0.38 g
  No. tumors regressed at time of autopsy: 2/10
120 mg/kg single i.v.
  Lung metastases (mice with lung metastases/mice with tumors): ¼ (25%)
  Mean tumor wt at autopsy: 0.925 ± 0.12 g
  No. tumors regressed at time of autopsy: 4/8
Highest dose (120 mg/kg)
  mice in which tumors shrank/disappeared: 50%

Source: patent publication US6730699B2, “Water soluble paclitaxel derivatives” (priority 2001, dated 2004)
